Legend:
[1] = system: MDR19-HEK293 (ABCB1) cells; experiment: Cytotoxicity / MDR reversal assay, MDR19-HEK293; assay type: cell-based, human; settings: up to 5 µM
KBV-1 cells = settings: IC50 KBV-1 / IC50 KB-3–1
CORL-23/R cells = settings: IC50 CORL-23/R / IC50 CORL-23/P
MCF7-FLV1000 cells = settings: IC50 MCF7-FLV1000 / IC50 MCF7
MCF7-AdVp3000 cells = settings: IC50 MCF7-AdVp3000 / IC50 MCF7
S1-M1-80 cells = settings: IC50 S1-M1-80 / IC50 S1
[2] = system: MRP1-HEK293 (ABCC1) cells; settings: up to 5 µM

CCCS(=O)(=O)Nc1ccc(F)c(C(=O)c2c[nH]c3ncc(-c4ccc(Cl)cc4)cc23)c1F [Vemurafenib]
effect on ABCB1-mediated doxorubicin resistance [1]: no significant effect
R.F (resistance factor) (KBV-1 cells): 1.15
R.F (resistance factor) (CORL-23/R cells): 1.00
R.F (resistance factor) (MCF7-FLV1000 cells): 1.10
R.F (resistance factor) (MCF7-AdVp3000 cells): 1.31
R.F (resistance factor) (S1-M1-80 cells): 1.08
effect on ABCC1-mediated etoposide resistance [2]: no significant effect

Reference: publication PMC3553236 (Biochemical pharmacology, 2012)
